Reference: patent publication US9969687B2, “Compounds useful as CCR9 modulators” (Norgine B.V., priority 2013, dated 2018)

Protein sequences, listed by entry. Tags and fused reporters are not part of them.
UniProt P51686, whole entry: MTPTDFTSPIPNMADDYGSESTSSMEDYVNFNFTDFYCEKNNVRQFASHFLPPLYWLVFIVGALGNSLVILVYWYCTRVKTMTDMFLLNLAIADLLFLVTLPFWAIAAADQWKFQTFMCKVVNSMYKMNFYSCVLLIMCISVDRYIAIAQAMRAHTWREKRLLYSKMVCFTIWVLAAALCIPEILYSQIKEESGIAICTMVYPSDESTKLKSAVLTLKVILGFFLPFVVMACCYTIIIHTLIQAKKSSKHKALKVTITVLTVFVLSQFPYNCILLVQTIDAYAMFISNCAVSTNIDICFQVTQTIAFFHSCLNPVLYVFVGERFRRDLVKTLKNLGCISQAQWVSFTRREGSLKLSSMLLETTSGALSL

Biological target: CCR9 (Homo sapiens (Human), UniProt P51686)
Assay: FLIPR calcium flux assay using MOLT4 cells, TECK stimulation
Conditions: MOLT4 cells (human T-cell line)
Experimental: Biological Activity: FLIPR Assay Using MOLT4 Cells
A calcium flux assay was used to determine the ability of the compounds to interfere with the binding between CCR9 and its chemokine ligand (TECK) in MOLT4 cells (a human T-cell line). MOLT4 cells were seeded (100,000 cells/well) in corning cell culture plates (Cat #3603) in assay buffer (1×HBSS, 20 mM HEPES) containing 2.5 mM Probenecid. The plate was centrifuged at 1200 rpm for 3 minutes and incubated at 37° C./5% CO2 for 2 hours. A 0.3× Fluo-4 NW calcium dye was prepared in assay buffer containing 5 mM Probenecid and stored in the dark. Each well was loaded with 25 μl of 0.3× Fluo-4 NW calcium dye and incubated at 37° C./5% CO2 for 60 minutes and then at room temperature for 30 minutes. A half-log serially diluted concentration response curve was prepared at a 4× concentration for each (10 μM-0.1 nM final assay concentration) and 25 μL of the compound then transferred to the cells (100 μL final volume) for 60 minutes prior to stimulation (30 minutes at 37° C./5% CO2 and 30 minutes at room temperature). TECK was diluted to 5× its EC50 in assay buffer (containing 0.1% [w/v] bovine serum albumin [BSA]) and 25 μL dispensed through the FLIPR instrument to stimulate the cells (125 μL final volume). The increased in intracellular calcium levels was measured with the FLIPR instrument. The potency of the compound as CCR9 antagonist was calculated as an IC50 using GraphPad Prism software (variable slope four parameter). The Ki of the compound was determined from the IC50 values using the following equation. IC50/1+(Agonist (TECK) conc. used in assay/EC50 of agonist (TECK) generated on day of experiment) Ki calculation: […]

Compound	Ki [nM]
Cc1ccc(CN2C(=O)c3c(Cl)ccc(NS(=O)(=O)c4ccc(C(C)(C)C)cc4)c3C2=O)c[n+]1[O-]	212
CC(C)(C)c1ccc(S(=O)(=O)Nc2ccc(Cl)c3c2C(=O)N(Cc2cc(C#N)c[n+]([O-])c2)C3=O)cc1	76
COc1c[n+]([O-])c(N2C(=O)c3c(Cl)ccc(NS(=O)(=O)c4ccc(C(C)(C)C)cc4)c3C2=O)cc1C	76
